Patent US20210253651A1, “METHOD FOR PRODUCING ORGANIC COMPOUND-ENCAPSULATING FERRITIN” (Ajinomoto Co., Inc., priority 2018, published 2021)

Columns and labels:
[1] = cited from earlier work
[2] = pH-dependence of FTH ferritin structure by DLS; format: physicochemical
Description: In order to investigate a pH-dependent change of the cage structure of ferritin, FTH ferritin was suspended in each of solutions with different pHs to achieve a final concentration of 1 mg/mL, and then the resulting solutions were left to stand at 25° C. for 30 minutes. Then, the size of ferritin was measured by the dynamic light scattering (DLS) method using Zetasizer Nano ZS for each pH. The measurement was carried out at 25° C. The used solutions were 0.1 N HCl (pH 1.7), 20 mM phosphoric acid (pH 2.6, pH 3.2, pH 5.6, pH 6.7 and pH 7.7), 20 mM acetic acid (pH 4.2, pH 4.9 and pH 5.3), 1 mM NaOH (pH 11.1), 10 mM NaOH (pH 12.3) and 100 mM NaOH (pH 12.8). pH adjustment was carried out for the solutions ranging from pH 2.0 to pH 2.4 by adding HCl to 10 mM Tris-HCl solution.

Cc1cc2nc3c(=O)[nH]c(=O)nc-3n(C[C@H](O)[C@H](O)[C@H](O)CO)c2cc1C [Riboflavin]
logP [1]: −1.46

FTH ferritin: ferritin formed of human-derived ferritin H chain (SEQ ID NO: 1) monomers
average particle diameter determined by DLS ([2]; pH 1.7 to pH 2.4, 25° C.): ≤ 8 nm
average particle diameter determined by DLS ([2]; pH 2.6 to pH 12.8, 25° C.): ≥ 11 nm
